According to PubChem BioAssay AID781 (Emory University Molecular Libraries Screening Center, 2007):
Only a part is listed here, and it is no random draw. Some results for these compounds are left out of this collection, so the calls shown say nothing about other tests. The source made the active and inactive calls.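 The calls were made as follows: active = inhibition above about 70% (limit read from the data); inactive = the rest.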

Sequences of proteins named here, by UniProt entry; tags and fusion partners are left off.
UniProt P63103, whole entry: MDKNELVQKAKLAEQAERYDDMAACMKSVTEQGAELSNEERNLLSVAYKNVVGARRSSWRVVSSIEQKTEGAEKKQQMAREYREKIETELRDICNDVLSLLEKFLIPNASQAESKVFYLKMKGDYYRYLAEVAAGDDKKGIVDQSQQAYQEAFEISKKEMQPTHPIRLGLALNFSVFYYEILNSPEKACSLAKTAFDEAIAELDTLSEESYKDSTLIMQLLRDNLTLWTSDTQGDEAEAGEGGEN

The compounds below were run against 14-3-3 protein zeta/delta (Bos taurus) (UniProt P63103) (assay: inhibitors of 14-3-3 zeta/Bad binding, primary screen, biochemical, TR-FRET, bovine 14-3-3 zeta (AID 781;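 also: 0% = full 14-3-3 plus peptide FRET controls and 100% = background without 14-3-3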)). Conditions: TR-FRET 14-3-3zeta/Dy647-pBad peptide displacement, 1 h; at 21.7 µM; stronger effect = higher value.

SMILES | inhibition
CC(C)N1C(=O)CC2(CCN(CCOC(=O)C(O)(c3ccccc3)c3ccccc3)CC2)C1=O | inactive: 15.3%
CCN(CC)CC(C)C(C)OC(=O)C(O)(c1ccccc1)c1ccccc1 (stereo unspecified) | inactive: 0.73%
O=C(NCC1(N2CCCCC2)CCCCC1)c1cc([N+](=O)[O-])ccc1Cl | inactive: -7.25%
CCN1CCCC(OC(=O)C2(O)c3ccccc3C=Cc3ccccc32)C1 (stereo unspecified) | inactive: 0.16%
C=CCN1CCN(CCOC(=O)C(O)(c2ccccc2)c2ccccc2)CC1 | inactive: 13.8%
CN(C)C1CCCC1OC(=O)C(O)(c1ccccc1)c1ccccc1 (stereo unspecified) | inactive: -4.58%
Cc1ccccc1C(=O)NCC1(N2CCCCC2)CCCCC1 | inactive: 15.2%
COc1cccc(C(=O)NCC2(N3CCCCC3)CCCCC2)c1 | inactive: -7.74%
CN(C)c1cccc(C(=O)NCC2(N(C)C)CCCCC2)c1 | inactive: 7.77%
COc1ccc(Br)c(C(=O)NCC2(N3CCCCC3)CCCCC2)c1 | inactive: 5.14%
O=C(OC1CN2CCC1CC2)C(CO)(c1ccccc1)c1ccccc1 (stereo unspecified) | inactive: -8.53%
